{
  "source": "PubChem BioAssay AID2716",
  "about": "(Broad Institute, 2010)",
  "note": "Only a part is listed here, and it is no random draw. Some of these compounds have results that are not shown, active ones among them. Active and inactive are the calls of the source.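 Rule for the calls: active = every valid replicate shows activation above 250% relative to neutral control wells; inactive = the rest, any valid replicate at or below 250%.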",
  "data": [
    {"experiment": "yeast Mot1-301 growth rescue at high temperature, primary screen, SUMOylation pathway inhibitor project, S. cerevisiae, ATP luminescence, 38.5C (AID 2716);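 note: OY570 slx delta 5 strain wells were the positive control but not used for scaling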", "conditions": "S. cerevisiae Mot1-301 growth rescue, at 18.8 µM, stronger effect = higher value, percent above DMSO median, 100 means doubled", "values": [
      {"compound": "CN1[C@@H]2CC[C@H]1CC(OC(=O)C(O)(c1ccccc1)c1ccccc1)C2", "note": "(stereo partly drawn)", "growth rescue": "inactive: 21.5%"},
      {"compound": "Cc1ccc(C(=O)NCC2(N3CCCCC3)CCCCC2)cc1", "growth rescue": "inactive: 53.1%"},
      {"compound": "CC(C)N1C(=O)CC2(CCN(CCOC(=O)C(O)(c3ccccc3)c3ccccc3)CC2)C1=O", "growth rescue": "inactive: 134%"},
      {"compound": "COc1cc(SC)ccc1C(=O)NCC1(N(C)C)CCCCC1", "growth rescue": "inactive: -2.18%"},
      {"compound": "CCN(CC)CC(C)C(C)OC(=O)C(O)(c1ccccc1)c1ccccc1", "note": "(stereo not drawn)", "growth rescue": "inactive: 50.5%"},
      {"compound": "CN(C)C1CCCC1OC(=O)C(O)(c1ccccc1)c1ccccc1", "note": "(stereo not drawn)", "growth rescue": "inactive: 3.42%"},
      {"compound": "CN(C)c1ccc(C(=O)NCC2(N(C)C)CCCCC2)cc1", "growth rescue": "inactive: 1.97%"},
      {"compound": "Cc1ccccc1C(=O)NCC1(N2CCCCC2)CCCCC1", "growth rescue": "inactive: 46.7%"},
      {"compound": "O=C(NCC1(N2CCCCC2)CCCCC1)c1cccc(Br)c1", "growth rescue": "inactive: -2.6%"},
      {"compound": "Cc1cc(C(=O)NCC2(N3CCCCC3)CCCCC2)ccc1[N+](=O)[O-]", "growth rescue": "inactive: 84.1%"},
      {"compound": "CCN1CCCC(OC(=O)C2(O)c3ccccc3C=Cc3ccccc32)C1", "note": "(stereo not drawn)", "growth rescue": "inactive: -6.14%"},
      {"compound": "COc1ccc(C(=O)NCC2(N(C)C)CCCCC2)cc1", "growth rescue": "inactive: 198%"},
      {"compound": "O=C(NCC1(N2CCCCC2)CCCCC1)c1cc(F)c(F)cc1Cl", "growth rescue": "inactive: 3.53%"},
      {"compound": "C=CCN1CCN(CCOC(=O)C(O)(c2ccccc2)c2ccccc2)CC1", "growth rescue": "inactive: 14%"},
      {"compound": "COc1cc(C(=O)NCC2(N(C)C)CCCCC2)c([N+](=O)[O-])cc1OC", "growth rescue": "inactive: 9.94%"},
      {"compound": "CN(C)C1(CNC(=O)c2ccc(Br)cc2)CCCCC1", "growth rescue": "inactive: 3.2%"},
      {"compound": "O=C(NCC1(N2CCCCC2)CCCCC1)c1cccc(Cl)c1", "growth rescue": "inactive: -7.64%"},
      {"compound": "COc1ccc(Cl)cc1C(=O)NCC1(N(C)C)CCCCC1", "growth rescue": "inactive: -18.6%"},
      {"compound": "COc1cccc(C(=O)NCC2(N3CCCCC3)CCCCC2)c1", "growth rescue": "inactive: -7.55%"},
      {"compound": "O=C(OC1CN2CCC1CC2)C(CO)(c1ccccc1)c1ccccc1", "note": "(stereo not drawn)", "growth rescue": "inactive: -6.65%"},
      {"compound": "CN(C)c1cccc(C(=O)NCC2(N(C)C)CCCCC2)c1", "growth rescue": "inactive: 4.12%"},
      {"compound": "CC(C)Oc1ccc(C(=O)NCC2(N(C)C)CCCCC2)cc1", "growth rescue": "inactive: -6.34%"},
      {"compound": "COc1ccc(Br)c(C(=O)NCC2(N3CCCCC3)CCCCC2)c1", "growth rescue": "inactive: 222%"}
    ]}
  ]
}
